Protein sequences, listed by entry. Tags and fused reporters are not part of them.
UniProt P53779, whole entry: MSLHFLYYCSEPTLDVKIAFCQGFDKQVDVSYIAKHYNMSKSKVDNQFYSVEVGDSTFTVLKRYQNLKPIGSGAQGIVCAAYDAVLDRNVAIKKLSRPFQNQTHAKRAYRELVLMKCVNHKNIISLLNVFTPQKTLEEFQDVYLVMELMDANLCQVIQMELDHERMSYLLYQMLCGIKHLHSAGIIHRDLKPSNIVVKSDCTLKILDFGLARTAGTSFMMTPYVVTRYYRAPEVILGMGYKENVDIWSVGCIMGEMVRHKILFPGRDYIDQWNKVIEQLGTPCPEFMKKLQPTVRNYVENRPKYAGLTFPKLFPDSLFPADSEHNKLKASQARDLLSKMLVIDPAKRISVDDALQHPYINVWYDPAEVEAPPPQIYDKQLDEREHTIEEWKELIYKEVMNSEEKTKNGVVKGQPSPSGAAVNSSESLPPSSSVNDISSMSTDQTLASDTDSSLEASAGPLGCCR

According to patent US12692268B2 (priority 2020, dated 2026):

Target: JNK3 (Homo sapiens, UniProt P53779)
Conditions: JNK3 enzyme activity, Table 2

NC(=O)N1Cc2nc(-c3ccc4c(c3)CCO4)n(-c3ccnc(N[C@H]4CCCN(C(=O)C5CC5)C4)n3)c2C1
IC50: 30 to 100 nM
